This experiment concerns the target Renin (Homo sapiens, UniProt P00797). The experiment in a line: Inhibition of human plasma renin. In kind it is cell-free. The method, boiled down: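 Enriched human plasma renin preparation, substrate its own endogenous angiotensinogen (about 2×10^-6 M). Inhibitor added over a range of increasing concentrations. Angiotensin I released was quantified by RIA. With substrate held constant across the series, IC50 is treated as linearly proportional to Ki.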

By UniProt entry, the sequences of proteins in these tests, tags left out. Where a name states a change or a piece, a line headed by the entry shows the natural chain unless it says otherwise.
UniProt P00797: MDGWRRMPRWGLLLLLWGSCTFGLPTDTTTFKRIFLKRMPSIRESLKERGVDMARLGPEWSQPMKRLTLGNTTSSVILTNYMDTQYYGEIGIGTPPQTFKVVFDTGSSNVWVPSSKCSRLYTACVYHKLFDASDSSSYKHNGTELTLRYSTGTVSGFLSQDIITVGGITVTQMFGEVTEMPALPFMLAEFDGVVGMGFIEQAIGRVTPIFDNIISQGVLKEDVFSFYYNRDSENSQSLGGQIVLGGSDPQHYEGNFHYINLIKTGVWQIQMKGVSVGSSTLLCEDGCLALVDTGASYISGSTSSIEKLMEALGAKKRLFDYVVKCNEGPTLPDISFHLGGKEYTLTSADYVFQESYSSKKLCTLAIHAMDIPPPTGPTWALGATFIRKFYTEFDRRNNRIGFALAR

What is called IC50 is the concentration that gives 50% inhibition.

`COC(=O)CC(O)[C@H](CC(C)C)NC(=O)[C@H](C)NC(=O)CC(O)[C@H](CC(C)C)NC(=O)[C@@H](NC(=O)[C@H](Cc1ccccc1)NC(=O)OC(C)(C)C)C(C)C` (some centres not stated) gave an IC50 of 64.6 nM.
The value for `COC(=O)C[C@H](O)[C@H](CC(C)C)NC(=O)[C@H](C)NC(=O)C[C@H](O)[C@H](CC(C)C)NC(=O)[C@H](CC(=O)Nc1ccccc1)NC(=O)[C@H](Cc1ccccc1)NC(=O)OC(C)(C)C` was 1410 nM.

The values are drawn from ChEMBL document CHEMBL1123569 (J Med Chem, 1987).
